The source of these data is patent US8959984B2, “Proteome-wide quantification of small molecule binding to cellular target proteins” (priority 2007, dated 2015).

Sequences of proteins named here, by UniProt entry; tags and fusion partners are left off. A change or cut given only in a name is not applied to a line headed by its entry.
UniProt Q9BUL8: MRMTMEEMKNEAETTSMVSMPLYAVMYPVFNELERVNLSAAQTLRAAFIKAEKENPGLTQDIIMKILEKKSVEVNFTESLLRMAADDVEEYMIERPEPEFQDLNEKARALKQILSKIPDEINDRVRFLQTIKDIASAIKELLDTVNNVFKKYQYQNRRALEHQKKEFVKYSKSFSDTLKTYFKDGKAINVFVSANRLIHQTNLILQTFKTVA
UniProt Q9NYL2: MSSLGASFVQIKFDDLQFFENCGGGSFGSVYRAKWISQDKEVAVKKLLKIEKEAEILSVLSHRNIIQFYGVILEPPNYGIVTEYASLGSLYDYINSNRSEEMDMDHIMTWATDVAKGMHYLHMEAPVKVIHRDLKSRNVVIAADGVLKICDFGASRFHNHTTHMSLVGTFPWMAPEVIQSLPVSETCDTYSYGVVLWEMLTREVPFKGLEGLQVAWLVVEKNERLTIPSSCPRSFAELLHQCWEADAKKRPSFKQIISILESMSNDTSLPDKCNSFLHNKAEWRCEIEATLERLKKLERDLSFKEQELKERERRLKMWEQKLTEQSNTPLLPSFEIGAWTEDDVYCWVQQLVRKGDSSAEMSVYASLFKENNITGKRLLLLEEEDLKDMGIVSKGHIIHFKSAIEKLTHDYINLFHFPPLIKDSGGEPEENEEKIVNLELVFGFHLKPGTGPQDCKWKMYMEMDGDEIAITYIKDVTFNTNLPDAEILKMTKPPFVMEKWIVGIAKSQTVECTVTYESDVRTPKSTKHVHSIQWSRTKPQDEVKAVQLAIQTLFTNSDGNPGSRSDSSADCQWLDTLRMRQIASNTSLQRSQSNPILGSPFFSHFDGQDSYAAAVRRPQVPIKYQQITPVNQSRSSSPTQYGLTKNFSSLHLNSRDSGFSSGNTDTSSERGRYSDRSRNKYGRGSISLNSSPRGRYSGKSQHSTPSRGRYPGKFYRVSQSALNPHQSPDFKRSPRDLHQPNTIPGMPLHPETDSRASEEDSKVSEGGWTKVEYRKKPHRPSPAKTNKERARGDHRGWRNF
UniProt P21127: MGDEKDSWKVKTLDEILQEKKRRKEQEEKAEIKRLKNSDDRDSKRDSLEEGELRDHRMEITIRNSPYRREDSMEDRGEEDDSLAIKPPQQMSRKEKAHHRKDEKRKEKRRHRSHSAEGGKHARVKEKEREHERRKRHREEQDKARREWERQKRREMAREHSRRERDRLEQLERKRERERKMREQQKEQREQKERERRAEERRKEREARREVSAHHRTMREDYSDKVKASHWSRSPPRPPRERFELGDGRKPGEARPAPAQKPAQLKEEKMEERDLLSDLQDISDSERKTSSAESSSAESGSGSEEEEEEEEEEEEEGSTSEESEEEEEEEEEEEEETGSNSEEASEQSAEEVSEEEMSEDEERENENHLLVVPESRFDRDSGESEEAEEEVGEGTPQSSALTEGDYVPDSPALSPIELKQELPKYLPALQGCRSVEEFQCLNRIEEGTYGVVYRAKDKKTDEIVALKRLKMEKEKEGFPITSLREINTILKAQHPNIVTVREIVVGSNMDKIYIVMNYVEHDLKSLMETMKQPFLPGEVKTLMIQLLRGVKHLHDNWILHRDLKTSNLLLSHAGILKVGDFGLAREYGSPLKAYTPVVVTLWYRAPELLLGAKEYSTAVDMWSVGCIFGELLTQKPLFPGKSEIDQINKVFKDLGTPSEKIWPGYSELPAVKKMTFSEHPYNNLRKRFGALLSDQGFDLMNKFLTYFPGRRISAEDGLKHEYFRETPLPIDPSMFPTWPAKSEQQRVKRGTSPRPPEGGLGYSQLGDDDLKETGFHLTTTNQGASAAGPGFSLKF
UniProt P27361, whole entry: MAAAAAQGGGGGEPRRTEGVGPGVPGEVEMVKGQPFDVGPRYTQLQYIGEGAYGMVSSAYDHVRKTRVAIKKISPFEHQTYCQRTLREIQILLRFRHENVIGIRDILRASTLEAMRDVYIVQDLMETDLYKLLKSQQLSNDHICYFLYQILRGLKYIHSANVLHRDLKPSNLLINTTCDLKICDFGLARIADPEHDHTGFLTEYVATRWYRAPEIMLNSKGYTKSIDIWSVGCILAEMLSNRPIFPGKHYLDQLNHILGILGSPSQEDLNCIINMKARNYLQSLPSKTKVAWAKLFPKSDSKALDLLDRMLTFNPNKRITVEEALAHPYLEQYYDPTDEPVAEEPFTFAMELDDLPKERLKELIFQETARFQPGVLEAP

What all share (assay): Ki determination for immobilized VI16742: two consecutive incubations, control beads, ligand concentration and incubation time controls (Tables 7, 8)
Holding throughout (format): binding

Assay [1] deals with cellular target proteins in HeLa cell lysate (Homo sapiens, UniProt Q9BUL8). The conditions noted are these: Ki (VI16742), PDCD10 IPI00298558.
The target of assay [2] is cellular target proteins in HeLa cell lysate (Homo sapiens, UniProt Q9NYL2). Particulars: Ki (VI16742).
The target of assay [3] is cellular target proteins in HeLa cell lysate (Homo sapiens, UniProt P24941). Particulars: Ki (VI16742), CDK2 IPI00031681.
Assay [4] concerns the target cellular target proteins in HeLa cell lysate (Homo sapiens, UniProt P21127). Particulars: Ki (VI16742), PITSLRE (CDC2L1) IPI00215999.
Assay [5] has as its target T1, cellular target proteins in HeLa cell lysate (Homo sapiens, UniProt Q13163).
T1 sequence (Q13163 1-448): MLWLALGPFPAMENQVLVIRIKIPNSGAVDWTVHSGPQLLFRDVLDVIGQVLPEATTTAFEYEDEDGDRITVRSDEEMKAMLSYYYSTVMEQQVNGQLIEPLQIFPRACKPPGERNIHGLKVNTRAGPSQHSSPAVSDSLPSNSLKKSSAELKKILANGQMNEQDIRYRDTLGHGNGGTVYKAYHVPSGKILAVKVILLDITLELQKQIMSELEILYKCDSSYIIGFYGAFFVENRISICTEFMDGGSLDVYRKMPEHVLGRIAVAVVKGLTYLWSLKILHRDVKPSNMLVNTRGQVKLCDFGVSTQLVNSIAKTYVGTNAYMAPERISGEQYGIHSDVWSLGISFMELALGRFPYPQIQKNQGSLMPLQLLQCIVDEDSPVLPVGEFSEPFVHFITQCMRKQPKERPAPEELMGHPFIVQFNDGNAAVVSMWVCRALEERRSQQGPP
The conditions noted are these: Ki (VI16742), MAP2K5 IPI00185860.

Assay [6] deals with T2, cellular target proteins in HeLa cell lysate (Homo sapiens, UniProt P16083).
T2 sequence (P16083 1-231): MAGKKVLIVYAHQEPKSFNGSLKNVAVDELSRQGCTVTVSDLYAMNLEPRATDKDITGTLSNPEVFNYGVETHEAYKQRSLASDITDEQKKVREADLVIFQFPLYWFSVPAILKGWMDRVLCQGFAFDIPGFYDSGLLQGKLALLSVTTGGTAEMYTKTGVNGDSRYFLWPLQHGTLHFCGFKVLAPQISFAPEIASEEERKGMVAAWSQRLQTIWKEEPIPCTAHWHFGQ
Particulars: Ki (VI16742), NQO2 IPI00219129.

Assay [7] has as its target cellular target proteins in HeLa cell lysate (Homo sapiens, UniProt P27361).

The structures appear in SMILES notation.

With `CC(C)n1c(=O)ccc2cnc(Nc3ccc(OCCN)cc3)nc21` [V16742], the Ki (in general, the dissociation constant of the complex between target and ligand, obtained from inhibition or displacement) in assay [1] worked out at 69.8 µM; in assay [2] (ZAK (MLTK) IPI00029643) it was 4.07 µM; in assay [2] (ZAK (MLTK) IPI00329638), 6.34 µM; in assay [3], 3.69 µM; in assay [4], 68.4 µM; in assay [5], 17.6 µM. Also, the Ki worked out at 4.13 µM in assay [6] and 42.9 µM in assay [7].
